# Data: US20200262813A1, “1,5,7-TRISUBSTITUTED ISOQUINOLINE DERIVATIVES, PREPARATION THEREOF, AND USE THEREOF IN MEDICINES” (SHANGHAI HAIYAN PHARMACEUTICAL TECHNOLOGY CO., LTD., priority 2016, published 2020)
# Chains of the proteins cited; added tags and fusions are not shown.
# UniProt Q15910, whole entry Y641F: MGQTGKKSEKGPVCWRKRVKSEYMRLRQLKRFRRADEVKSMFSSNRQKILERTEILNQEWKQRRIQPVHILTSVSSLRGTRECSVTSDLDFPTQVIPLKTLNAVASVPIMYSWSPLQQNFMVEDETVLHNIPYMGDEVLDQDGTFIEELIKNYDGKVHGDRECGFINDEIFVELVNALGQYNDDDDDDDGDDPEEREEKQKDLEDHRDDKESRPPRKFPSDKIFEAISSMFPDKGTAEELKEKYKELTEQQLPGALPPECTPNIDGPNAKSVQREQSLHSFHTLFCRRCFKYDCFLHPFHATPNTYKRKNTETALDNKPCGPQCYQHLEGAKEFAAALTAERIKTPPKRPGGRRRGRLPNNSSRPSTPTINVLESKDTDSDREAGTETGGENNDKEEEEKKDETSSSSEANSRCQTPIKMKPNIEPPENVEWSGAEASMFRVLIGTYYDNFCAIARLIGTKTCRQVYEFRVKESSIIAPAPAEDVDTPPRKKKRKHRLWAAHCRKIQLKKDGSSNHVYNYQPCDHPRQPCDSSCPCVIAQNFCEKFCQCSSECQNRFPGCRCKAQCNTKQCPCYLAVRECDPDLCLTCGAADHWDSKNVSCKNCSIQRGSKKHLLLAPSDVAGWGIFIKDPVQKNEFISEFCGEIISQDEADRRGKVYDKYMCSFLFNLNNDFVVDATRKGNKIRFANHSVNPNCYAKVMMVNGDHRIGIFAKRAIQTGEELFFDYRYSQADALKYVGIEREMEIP
# Read-outs that look alike come from different tables or passages of the source.
# Tests used:
# Pfeiffer cells = assay: Cell proliferation test (cell counting kit-8, 6 days); assay type: cell-based; details: Homo sapiens, 144 h, 6 days' growth
# Description: Cells were harvested by centrifuge and densities were determined using a CounterStar cell counter. Appropriate number of cells were plated in a 96-well culture plate and incubated overnight. Compounds to be tested were 1:3 diluted for 8 gradient points and added into corresponding wells. After 6 days' growth, cell counting kit-8 (Dojindo) was used to detect cell viability and absorbance values were read on Tecan infinite pro.
# [1] = molecular target: Recombinant PRC2 (EZH2-Y641F) (Homo sapiens, UniProt Q15910, Y641F); assay: In vitro methyltransferase activity test (LANCE Ultra); details: LANCE Ultra detection, 3 hours reaction;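 note: compounds tested as an 8-point threefold dilution series, fluorescence read after 1 h detection step at room temperature, IC50 derived from a four-parameter curve fit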
"IC50 ([1]; EZH2 Y641F IC50, Recombinant PRC2 (EZH2-Y641F))","IC50 ([1]; read-out: EZH2 Y641F IC50, Recombinant PRC2 (EZH2-Y641F))",SMILES,IC50 (Pfeiffer cells)
< 5 nM,–,CCN(c1cc(-c2ccc(CN3CCN(C)CC3)nc2)cc2c(NCc3c(C)cc(C)[nH]c3=O)nccc12)[C@H]1CC[C@H](N(C)C)CC1 [Compound Z-52],383 nM
–,22 nM,CCN(c1cc(-c2ccc(CN3CCN(C)CC3)nc2)cc2c(NCc3c(C)cc(C)[nH]c3=O)nccc12)[C@H]1CC[C@@H](N(C)C)CC1 [Compound Z-58],–
